Laboratory results reported in US7638552B1 (Sciele Pharma, Inc., priority 2003, dated 2009).

Conditions: in vivo

Compound: C[N+]1(C)CCC(OC(=O)C(O)(c2ccccc2)C2CCCC2)C1.[Br-] (stereo not shown) [glycopyrrolate, 3-[(cyclopentylhydroxyphenylacetyl)oxy]-1,1-dimethylpyrrolidinium bromide]
- kel LS Mean Group A fasted (both, human): 0.2636 h⁻¹
- kel LS Mean Group B fed (both, human): 0.2283 h⁻¹
- kel Ratio (A − B) (both, human): 1.154
- food effect on the pharmacokinetic parameters: appreciable
